{
  "source": "patent US7250397B2",
  "about": "“Antiarrhythmic peptides” (Zealand Pharma A/S, priority 2000, dated 2007)",
  "test_system": "isolated guinea pig myocytes",
  "assay": "Intercellular conductance Gj (GJIC), double patch clamp of cardiomyocyte pairs",
  "assay_type": "cell-based",
  "conditions": "10^−8 M; steady-state level; five experiments",
  "experimental": "Cell preparation: Cells were isolated from guinea pig hearts by perfusion with collagenase according to the Langendorf method. In brief, guinea pigs were heparinised with an intraperitoneal injection of heparin (1000 IU/kg). After 30 minutes the animal was sacrificed by a blow to the neck followed by cutting the spine at the neck. The chest was opened and the aorta cannulated. Then the cannula was fixed to the aorta by a ligature, exised and perfused with Tyrodes solution for a couple of minutes. The Tyrodes solution had the following composition in mM: Na^+ 135.33, K^+ 4, Cl^− 145, PO4^− 0.33, Mg^2+ 1, Ca^2+ 2, Hepes 10, Glucose 10, pH 7.4. All perfusion media were bubled by 100% oxygen. […]. Then the heart was perfused with high K^+ solution with 0.6 mg/ml collagenase, this was done for 10-15 minutes judged from the apperance of the heart. The atria were cut off, the ventricles minced, whereafter the pieces were stirred in the collagenase solution by gently bubbling with 100% oxygen. […]\nWhere Ip,pulse and Ip,rest represent the current in the passive cell during the pulse and before the pulse respectively, and Up and Ua represent the voltage of the passive and active cell. […] However, the change in Gj value to a standardized intervention like a drug can be analysed by comparing the relative changes in Gj.",
  "data": [
    {"substance": "Ac-D-Tyr-D-Pro-D-4Hyp-Gly-D-Ala-Gly-NH2 [Compound 2]", "values": [
      {"measurement": "ΔGj, relative change in intercellular conductance", "result": "+120±46%"}
    ]}
  ]
}
